Target: 14-3-3ζ nhpSer58 with a FLAG tag at its N-terminus (Homo sapiens (Human)) (UniProt P63104)

| Substance | FC [fold] |
| --- | --- |
| 39S ribosomal protein L14, mitochondrial [OS = Homo sapiens] (from UniProt Q6P1L8 31-145) (other; other documents disagree on this pair) | 0.0318 |
| 60S ribosomal protein L32 [OS = Homo sapiens] (from UniProt P62910 2-135) (other; other documents disagree on this pair) | 0.0388 |

Second part, the substance after the results:

| FC [fold] | Substance |
| --- | --- |
| 4.82 | SRA stem-loop-interacting RNA-binding protein, mitochondrial [OS = Homo sapiens] (from UniProt Q9GZT3 1-109) |
| 5.72 | 28S ribosomal protein S27, mitochondrial [OS = Homo sapiens] (from UniProt Q92552 37-414) |
| 0.178 | NCK-interacting protein with SH3 domain [OS = Homo sapiens] (from UniProt Q9NZQ3 1-722) |
